{"source": "patent US11698366B2", "about": "“Human tissue stem cell and use thereof” (KEIO UNIVERSITY, priority 2017, dated 2023)", "system": "cancer stem cell", "assay": "LGR5-iCT/CMV-GFP organoid screening, tdTomato fluorescence", "type": "cell-based, human", "conditions": "final concentration shown in FIG. 8; DMSO control", "text": "A CMV-GFP construct was further introduced into the LGR5-iCT organoid prepared in Experimental Example 4. In the CMV-GFP construct, a GFP gene was linked downstream of the CMV promoter, which is the forced expression promoter. Therefore, regardless of whether or not the LGR5 gene was expressed, the GFP gene was expressed in all cells and emitted fluorescence of the GFP protein. Hereinafter, these organoids may be referred to as “LGR5-iCT/CMV-GFP organoids” in some cases.\nIn the LGR5-iCT/CMV-GFP organoid, survival activity of the cancer cell can be observed by fluorescence of GFP, and survival activity of the cancer stem cell can be observed by fluorescence of tdTomato.\nUsing the LGR5-iCT/CMV-GFP organoid, high-throughput screening of existing anticancer drugs used for the treatment of colon cancer was performed, and the effects on the cancer cells and the cancer stem cells were examined.\nFIG. 8 is a micrograph of an organoid showing a typical result. In FIG. 8, “BRIGHT FIELD” indicates a bright field observation image. “CMV-GFP” indicates a fluorescence micrograph obtained by observing GFP fluorescence”. “LGR5-tdTomato” indicates a fluorescence micrograph obtained by observing tdTomato fluorescence. “Merge” indicates the result obtained by synthesizing the bright-field observation image, the GFP fluorescence micrograph, and the micrograph of tdTomato fluorescence. […]", "data": [{"substance": "Cetuximab", "values": [{"measurement": "effect against the cancer stem cell (tdTomato fluorescence)", "result": "significantly increases the survival activity"}]}]}
